Laboratory results from ChEMBL document CHEMBL1133367, “Structure-activity relationship studies of chloromethyl ketone derivatives for selective human chymase inhibitors” (Bioorg Med Chem Lett, 2000).

Chains of the proteins cited; added tags and fusions are not shown.
UniProt P00761, whole entry: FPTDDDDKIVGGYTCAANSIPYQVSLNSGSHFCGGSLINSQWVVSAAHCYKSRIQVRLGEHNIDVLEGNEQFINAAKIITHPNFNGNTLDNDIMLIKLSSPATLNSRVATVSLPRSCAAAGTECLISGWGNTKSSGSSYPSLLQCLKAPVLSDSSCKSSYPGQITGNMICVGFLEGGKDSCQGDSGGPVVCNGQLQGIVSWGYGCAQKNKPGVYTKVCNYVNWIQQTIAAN

Biological target: Trypsin (Sus scrofa, UniProt P00761)
Experiment: Inhibitory activity against porcine pancreatic trypsin (TRP)

IC50: > 1000 µM
SMILES: O=C(CCc1ccccc1F)N[C@@H](Cc1ccccc1)C(=O)CCl
